{
  "sequences": {"note": "Sequences of proteins named here, by UniProt entry; tags and fusion partners are left off.", "UniProt P14735, whole entry": "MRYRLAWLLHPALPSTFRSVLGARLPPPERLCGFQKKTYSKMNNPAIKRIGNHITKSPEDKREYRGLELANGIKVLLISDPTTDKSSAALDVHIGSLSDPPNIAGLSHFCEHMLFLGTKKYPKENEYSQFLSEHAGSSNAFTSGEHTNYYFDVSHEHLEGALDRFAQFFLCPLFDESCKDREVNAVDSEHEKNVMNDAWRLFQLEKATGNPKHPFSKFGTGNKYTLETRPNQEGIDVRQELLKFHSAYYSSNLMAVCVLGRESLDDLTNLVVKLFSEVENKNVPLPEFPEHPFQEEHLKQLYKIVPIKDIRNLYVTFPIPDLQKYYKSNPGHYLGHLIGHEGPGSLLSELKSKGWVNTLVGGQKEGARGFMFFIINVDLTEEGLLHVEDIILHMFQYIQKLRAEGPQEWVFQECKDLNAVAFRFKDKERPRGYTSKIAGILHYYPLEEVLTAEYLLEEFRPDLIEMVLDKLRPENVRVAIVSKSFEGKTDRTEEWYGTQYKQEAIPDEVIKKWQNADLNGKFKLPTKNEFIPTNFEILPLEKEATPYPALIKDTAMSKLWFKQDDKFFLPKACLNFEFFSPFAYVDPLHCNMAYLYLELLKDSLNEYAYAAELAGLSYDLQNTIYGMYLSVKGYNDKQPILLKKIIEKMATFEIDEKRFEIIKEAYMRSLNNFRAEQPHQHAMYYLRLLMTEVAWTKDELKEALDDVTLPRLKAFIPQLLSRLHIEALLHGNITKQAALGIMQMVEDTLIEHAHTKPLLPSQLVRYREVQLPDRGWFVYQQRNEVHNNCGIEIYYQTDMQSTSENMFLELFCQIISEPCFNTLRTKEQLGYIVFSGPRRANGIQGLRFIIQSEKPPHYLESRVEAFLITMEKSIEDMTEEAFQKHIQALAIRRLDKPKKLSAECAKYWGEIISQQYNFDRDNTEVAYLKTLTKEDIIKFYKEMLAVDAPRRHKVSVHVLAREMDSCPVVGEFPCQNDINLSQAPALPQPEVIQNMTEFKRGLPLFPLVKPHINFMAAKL"},
  "source": "PubChem BioAssay AID434962",
  "about": "(The Scripps Research Institute Molecular Screening Center, 2010)",
  "note": "The entries are a selection whose mix differs from that of the whole data set. The source made the active and inactive calls.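 The calls were made as follows: active = percent inhibition above the average of all tested compounds plus 3 SD, set per screening campaign (cut at about 16% in these data); inactive = the rest.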",
  "data": [
    {"molecular_target": "Insulin-degrading enzyme (Homo sapiens) (UniProt P14735)", "assay": "human IDE inhibitors in live cells, primary screen, fluorescence polarization, HEK cells, FAbetaB substrate (AID 434962);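 also: IDE supplied by intact live HEK cells; FP after avidin binding of uncleaved biotin substrate so inhibition keeps polarization high; 0% = DMSO wells and 100% = 60 µM reference IDE inhibitor Ii1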", "details": "FAbetaB cleavage, at 5.59 µM, active compounds read high", "values": [
      {"smiles": "CCC(=O)N(c1ccccc1)C1(COC)CCN(CCn2nnn(CC)c2=O)CC1", "inhibition": "inactive: 1.57%"},
      {"smiles": "CCC(=O)N(c1ccccc1)C1(COC)CCN(CCc2cccs2)CC1", "inhibition": "inactive: 1.24%"}
    ]}
  ]
}
